Yeast mating assay B: variants of the scFv Ab-14

The measurements come from Li et al. 2023 (doi:10.1038/s41467-023-39022-2) through the FLAb antibody collection.

The target is the same throughout: PDVDLGDISGINAS, from the HR2 region of SARS-CoV-2 spike.

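Phage display of a naive human antibody library on the peptide gave the parent. Designed CDR sequences, proposed from the first random library and measured here. Several design methods are mixed in this list. In AlphaSeq, yeast of one mating type display the scFv and yeast of the other type display the target. The frequency of each diploid, read from paired DNA barcodes, reflects how well the two displayed proteins bind. Scores were corrected for input abundance and mapped to Kd with protein pairs of known affinity run in the same pool. Mating was done six times.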

Parent scFv Ab-14: VH joined to VL by a 15-residue (Gly4Ser)3 linker. Changes lie in the heavy chain CDRs alone.
VH: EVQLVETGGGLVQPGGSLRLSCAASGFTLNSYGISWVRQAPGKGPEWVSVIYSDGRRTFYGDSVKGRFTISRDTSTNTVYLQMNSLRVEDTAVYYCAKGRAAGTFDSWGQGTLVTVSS
VL: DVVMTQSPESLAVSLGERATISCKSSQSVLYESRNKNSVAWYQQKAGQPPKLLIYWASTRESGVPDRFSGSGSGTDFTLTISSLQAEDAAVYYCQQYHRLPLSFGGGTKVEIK

The parent's heavy chain CDRs are GFTLNSYGIS, VIYSDGRRTFYGDSVK, GRAAGTFDS; each variant's own CDRs replace them letter for letter. Each Kd is an estimate from the mating assay, the geometric mean of the replicates in which the pair was seen; lower is stronger. Where no diploid with the target was found in any replicate, the entry reads "not detected": below detection, most likely a poor binder, though not proof of it.

CDR-H1	CDR-H2	CDR-H3	apparent Kd	replicates with signal	signal with controls
GFDLEEMGIS	VIYADGSRKKYQDAVK	GHVSGDFDE	not detected	0 of 6	0 of 18
GFDLNTYGIS	VIYSDGRRTFYGDSVK	GRTAGTFDS	1.1 nM	6 of 6	0 of 18
GFTINSYGIS	VIYSDGRRTFYADSVK	GRAAGPFDS	not detected	0 of 6	0 of 18
GFSLNNYGIS	VIYSDGRRTFYGDSVK	GRVAGTFDS	6.3 nM	6 of 6	0 of 18
GFTLNSYGIS	VIYSDGERTFYCDSVK	GRVAGTFDS	180 nM	6 of 6	1 of 18
GFDLNEYGIS	VIYADGRRTFYADSVK	GEVAGTFDQ	1.0 nM	6 of 6	0 of 18
GFNLMSYGIS	VIYSDGRRTFYGDSVK	GRAAGNPDN	280 nM	1 of 6	1 of 18
GFNLDEYGIS	VIYADGMRVVYTNDVK	GLYTVLKGK	not detected	0 of 6	0 of 18
GFDLNEYGIS	VIYADGMRTFYADSVK	GEVAGTFDI	240 pM	6 of 6	0 of 18
GFDLNEYGIS	VIYADGMRTVYADSVK	GGNAGTFDI	180 pM	6 of 6	1 of 18
GTTLNSYGIS	VIYSDGRRTFYGDSVK	GRAAGTFDS	33 nM	1 of 6	0 of 18
GFDLNEYGIS	VIYADGSRTVYSDSVK	GNQAGTFDS	2.2 nM	6 of 6	0 of 18
GFDLNSYGIS	VIYSDGRRTFYGDAVK	GRIAGTFDS	3.2 nM	6 of 6	0 of 18
GFALNSYGIS	VIYSDGRRTFYGDSVK	GRCAGTFHT	not detected	0 of 6	0 of 18
GFVLNEYGIS	VIYADGMRTAYAEDFK	GVTGVNLHI	not detected	0 of 6	0 of 18
GFTLESYGIS	VIYSDGRRTFYDDSVK	GRDAGTFDT	6.0 nM	6 of 6	1 of 18
GFTLNQYGIS	VIYSDGRRLFYGDSVK	GRAAGTFDW	not detected	0 of 6	0 of 18
GFTLNEYGIS	VIYSDGRRTFYGDSVK	GRAAGTFDV	3.1 nM	6 of 6	0 of 18
GFDLNSYGIS	VIYSDGRRTFYKDSVK	GREAGTFDS	17 nM	5 of 6	0 of 18
GGDIQEYGIS	VIYADGQRAYYADAVK	GNIGAIFSD	620 pM	6 of 6	0 of 18
GFDLNSYGIS	VIYSDGRRTFYGDSVK	GQAAGTFDL	1.2 nM	6 of 6	0 of 18
GFDLNEYGIS	VIYADGVRTAYVDSVK	GENAGTFDM	2.1 nM	6 of 6	0 of 18
GFTLNEYGIS	VIYSDGMRTAYLDSVK	GRAAGTFDS	660 pM	5 of 6	0 of 18
SFSLDDYGIS	VIYADGMRKAYVDEVK	GYVAGTFDE	1.7 nM	6 of 6	2 of 18
GFSLNSYGIS	VIYSDGRRTFYGDKVK	GKTAGTFDS	9.6 nM	4 of 6	0 of 18
GFTLNDYGIS	VIYSDGRRTAYADSVK	GRAAGTFDS	2.9 nM	29 of 30	4 of 90
GFQLDEQGIS	VIYADGVRCSYAQSVK	GANSGVIDV	110 nM	5 of 6	2 of 18
GFTLNSYGIS	VPYSDRRRTFYSDSVK	GRAGGTFDS	not detected	0 of 6	0 of 18
GFTLNSYGIS	VIYSDGKRTFYGDDVK	GRAAGTFDS	55 nM	4 of 6	1 of 18
GFTLNSYGHS	VKYADGRRTFYGDSVK	GRAAGTNKS	not detected	0 of 6	0 of 18
GFSLNSYGIS	VIYSDGRRTFYKDSVK	GQAAGTFDS	3.4 nM	6 of 6	1 of 18
GFDLNEYGIS	VIYADGMRTYYADSVK	GQTAGTFDV	810 pM	6 of 6	2 of 18
GFQLNSYGIS	VIYSDGRRTFYGDSVK	VRAAGTFDS	not detected	0 of 6	2 of 18
GFHLNSYGIS	VIYADGRRTFYGDSVK	GEAAGTFDS	620 pM	6 of 6	2 of 18
RFTLNSYGIS	VIYSDGRRTFYTDSVK	GRPAGTWDS	not detected	0 of 6	0 of 18
GFTLNSYGIS	VIYSDGRRTFYGDPVK	GKTAGTFDT	64 nM	4 of 6	0 of 18
GFTLNSYGIS	VIYSDGRRTFYGDSVK	GQVAGTFDL	26 nM	6 of 6	1 of 18
GFSLNCYGIS	VIYSDGRRTFYSDSVK	GEAAGTFDS	29 nM	3 of 6	0 of 18
GFDLDEYGIS	VIYADGMRTAYTDSVK	GANAGTFDV	570 pM	6 of 6	0 of 18
KFDIEHYGIS	VIYADGKRSGYSNAVK	GWQAGTFNT	1.3 nM	5 of 6	0 of 18
GKNIDEYGVS	VIYADGKRTAYANNFK	GSNAGSFVS	not detected	0 of 6	2 of 18
GFDVEKYGIS	VIYADGYRSAYASSVK	GGEAGNFHV	220 pM	6 of 6	1 of 18
GFSLNSYGIS	VIYSDGRRTFYEDSVK	GRTAGTFDS	2.0 nM	5 of 6	1 of 18
GFSLNSYGIS	VIYSDGRRTFYVDSVK	GRVAGTFDS	12 nM	6 of 6	0 of 18
GFNLNSYGIS	VIYSDGRRTMYGDSVK	GRTAGTFDS	3.4 nM	1 of 6	0 of 18

The 7 strongest on average among those seen in every replicate, once more:

CDR-H1	CDR-H2	CDR-H3	apparent Kd	replicates with signal	signal with controls
GFDLNEYGIS	VIYADGMRTVYADSVK	GGNAGTFDI	180 pM	6 of 6	1 of 18
GFDVEKYGIS	VIYADGYRSAYASSVK	GGEAGNFHV	220 pM	6 of 6	1 of 18
GFDLNEYGIS	VIYADGMRTFYADSVK	GEVAGTFDI	240 pM	6 of 6	0 of 18
GFDLDEYGIS	VIYADGMRTAYTDSVK	GANAGTFDV	570 pM	6 of 6	0 of 18
GFHLNSYGIS	VIYADGRRTFYGDSVK	GEAAGTFDS	620 pM	6 of 6	2 of 18
GGDIQEYGIS	VIYADGQRAYYADAVK	GNIGAIFSD	620 pM	6 of 6	0 of 18
GFDLNEYGIS	VIYADGMRTYYADSVK	GQTAGTFDV	810 pM	6 of 6	2 of 18

Some sequences occur more than once in the pool; their replicates are pooled. Empty control strains, which show no peptide, gave a signal in 1% of pairings with all heavy chain designs; the median was 120 nM and 95% of these signals were weaker than 7.0 nM. No background was subtracted. For each scFv, signals with the empty controls are counted beside the result. Of ten entries with the parent sequence, four were seen in most replicates (averages 2.2 nM to 240 nM), three in one and three in none, so single entries are noisy. In the paper, a design with two or fewer of six values counts as a poor binder. A sequence measured in both rounds can read differently, since the two assays cover different ranges.